Measured values as given in patent publication US20130337579, “Methods for Determining Protein Ligand Binding” (UNIVERSITY OF MARYLAND, COLLEGE PARK, published 2013).

Columns and labels:
Details in all cases: tags: His-CRP expressed from pBAD-CRP, Ni-NTA and anion exchange; chain copies: 2; label: 5'-32P
[1] = molecular target: T1, CRP (catabolite activator protein, cAMP receptor protein) (Escherichia coli, UniProt P0ACJ8 P0ACJ8:2-210); assay: DRaCALA; no cAMP
T1 sequence: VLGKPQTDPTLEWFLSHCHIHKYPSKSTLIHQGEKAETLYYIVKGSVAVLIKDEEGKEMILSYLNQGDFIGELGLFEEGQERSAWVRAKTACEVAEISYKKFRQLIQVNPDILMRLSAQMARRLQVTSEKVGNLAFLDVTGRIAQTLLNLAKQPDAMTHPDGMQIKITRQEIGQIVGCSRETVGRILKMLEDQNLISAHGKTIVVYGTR

[2] = molecular target: T1, CRP (catabolite activator protein, cAMP …); assay: DRaCALA; 200 nM cAMP
[3] = molecular target: T1, CRP (catabolite activator protein, cAMP …); assay: DRaCALA; 200 uM cAMP; 10 mM Tris pH 7.9, 200 mM NaCl, room temp

B1: ICAP oligo duplex (gd126/gd127) (dsDNA)
DNA 1: AGGAGGAATAAATGTGATCTAGATCACATTTTAGAGGAGG
DNA 2: CCTCCTCTAAAATGTGATCTAGATCACATTTATTCCTCCT
Kd [1]: 8400 nM
Kd [2]: 56 nM
Kd [3]: 0.56 nM
